These results are taken from patent US4563471A, “4-Oxothiazolidin-2-ylidene-acetamide derivatives as CNS agents” (Warner-Lambert Company, priority 1983, dated 1986).

The series is described as follows: in vivo. The note with it: mouse, po. On the procedure:
The determination of the acute toxicity was carried out on male mice (NMRI) with a body weight of 18-23 g. All experimental animals were fasted for 20 hours before commencement of the experiment. Water was available ad libitum. To each dosage group there belonged four animals. The dosage sequence was logarithmic. The test substances were administered intragastrally as suspension in 0.88% Methocel. The volume of administration amounted to 20 ml/kg.

As to `O=C1NC(=O)C(c2ccccc2)(c2ccccc2)N1` [phenytoin], the LD50 at 168 h is 490 mg/kg and the selectivity ratio was in the range of 2.5 to 213.
